# Only a part is listed here, and it is no random draw. Calls of active or inactive are those of the source. Rule as the data show it: active = inhibition above about 37%; inactive = the rest.
# Sequences of proteins named here, by UniProt entry; tags and fusion partners are left off.
# UniProt P63165, whole entry, looked up: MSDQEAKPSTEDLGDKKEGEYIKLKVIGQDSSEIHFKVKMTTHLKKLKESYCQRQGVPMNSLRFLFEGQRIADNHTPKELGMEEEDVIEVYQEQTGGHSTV
# Target: Small ubiquitin-related modifier 1 (Homo sapiens) (UniProt P63165)
# Assay: SUMO1 binding to interaction partners, disruption – biochemical, uHTS, primary screen (AID 602429)
# Conditions: SUMO1 binding to a labelled peptide, TR-FRET, 1 h; at 20 µM; active compounds read high
row,Compound,inhibition
1,Cc1ccc(NCCc2c([N+](=O)[O-])cc([N+](=O)[O-])cc2[N+](=O)[O-])cc1,inactive: -29.2%
2,Nc1cccc2c([As](=O)(O)O)cccc12,inactive: 2.4%
3,CCCOP(=S)(Nc1nc(N)cc(=O)[nH]1)OCCC,inactive: -4.9%
4,CCOP(=O)(Nc1cccc2ccccc12)OCC,inactive: -2.05%
5,COc1cc(C2NCCC3(OCCO3)C2(C)C)cc(OC)c1OC (configuration not stated),inactive: -3.8%
6,O=C(OC1CN2CCC1CC2)c1ccc(Cl)cc1 (configuration not stated),inactive: 2.82%
7,CS(=O)(=O)c1ccc(Cl)c(NC(=O)COC(=O)C(O)(c2ccccc2)c2ccccc2)c1,inactive: -3.03%
8,COc1cc(C(=O)NCC2(N3CCOCC3)CCCCC2)cc(Cl)c1OC(C)C,inactive: 0.816%
9,O=[As](O)(O)c1cccnc1,inactive: 5.73%
10,O=[As](O)(c1cccc(O)c1)c1cccc(O)c1,inactive: -0.956%
11,Cc1cccc(OCC(=O)OC2CN3CCC2CC3)c1 (configuration not stated),inactive: -3.41%
12,NC(=O)Nc1ccc([As](=O)(O)O)cc1,inactive: 8.2%
13,CCOP1(=S)c2c(C)nn(CCC#N)c2N=C(c2ccc(F)cc2)N1C (configuration not stated),inactive: 1.19%
14,CN(C(=O)Cc1ccccc1)[C@@H]1CC[C@]2(CCCO2)C[C@H]1N1CCCC1,inactive: -2.6%
15,N#CCCN(C(=O)COC(=O)C(O)(c1ccccc1)c1ccccc1)c1ccc(F)cc1,inactive: 1.51%
16,CN(C(=O)Cc1ccc(Cl)c(Cl)c1)[C@H]1CC[C@@]2(CCCO2)C[C@@H]1N1CCCC1,inactive: 0.394%
17,CN(C)C(=O)c1cc([N+](=O)[O-])cc2c1-c1c(cc([N+](=O)[O-])cc1[N+](=O)[O-])C2=O,inactive: -34.6%
18,O=[N+]([O-])c1ccc2c(c1)nnn2O,inactive: -17.8%
19,O=P(Nc1nccs1)(c1ccccc1)c1nc2ccccc2s1 (configuration not stated),inactive: 5.61%
20,O=P(Nc1nccs1)(Oc1ccccc1)Oc1ccccc1,inactive: 1.67%
21,CCOP1(=S)c2c(C)nn(CCC#N)c2N=C(c2ccccc2F)N1C (configuration not stated),inactive: 1.52%
22,CS(=O)(=O)c1cc([N+](=O)[O-])c2no[n+]([O-])c2c1,inactive: -28.2%
23,O=C(O)COc1ccc([As](=O)(O)O)cc1[N+](=O)[O-],inactive: -5.7%
24,Nc1ccccc1[As](=O)(O)c1ccccc1,inactive: -6.96%
25,Cc1ccc(S(=O)(=O)N(CCCN)CCCc2c(C)nc(N)[nH]c2=O)cc1,inactive: -14.9%
26,O=P1(Nc2ncccn2)COc2ccccc2OC1,inactive: 1.6%
27,Nc1cccc([As](=O)(O)c2ccccc2)c1,inactive: 2.22%

# From PubChem BioAssay AID602429 (Sanford-Burnham Center for Chemical Genomics, 2012)
